Assay results reported in patent publication US5200320A, “Method for identifying useful polypeptide vaccines” (National Jewish Center for Immunology and Respiratory …, priority 1987, dated 1993).

Target: T1, IA^d (Mus musculus, UniProt P01921+P04228)
T1 sequence (P04228 24-256): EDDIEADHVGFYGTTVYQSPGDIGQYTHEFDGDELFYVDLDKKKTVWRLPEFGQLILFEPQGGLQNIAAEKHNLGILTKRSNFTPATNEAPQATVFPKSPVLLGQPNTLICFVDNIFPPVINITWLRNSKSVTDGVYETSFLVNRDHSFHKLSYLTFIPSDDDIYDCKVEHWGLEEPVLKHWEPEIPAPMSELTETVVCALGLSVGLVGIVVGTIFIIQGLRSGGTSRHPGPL
T1 sequence (P01921 28-265): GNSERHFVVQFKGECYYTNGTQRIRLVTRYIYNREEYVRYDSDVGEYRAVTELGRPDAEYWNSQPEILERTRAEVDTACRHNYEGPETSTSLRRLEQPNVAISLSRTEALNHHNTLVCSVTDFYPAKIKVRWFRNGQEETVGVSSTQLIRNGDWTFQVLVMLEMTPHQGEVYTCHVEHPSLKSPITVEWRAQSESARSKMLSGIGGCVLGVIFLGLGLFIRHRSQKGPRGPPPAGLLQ
Assay: Inhibition of binding of 125I-radiolabelled Ova 323-339 to purified IA^d (gel filtration competition assay)
Conditions: Table 7, good binders; concentration of the indicated polypeptide
Source text: The following examples will illustrate the method of the present invention. First, a critical binding segment of a first polypeptide that binds to a first type of MHC, was ascertained. […] This was accomplished by the method described in Sette, et al, Nature, Vol. […] No. 6129, pp. 395-399, Jul. 30, 1987, the entirety of which is incorporated herein by reference. […] For convenience, Table I of that paper illustrating the foregoing procedure, is attached as Table 2.
The effect which the substitutions indicated by an "X" in Table III, had on the binding strength of the critical binding segment listed at the top of attached Table 4, was quantitatively calculated, and a numerical designation assigned to the substituting amino acid based upon the degree of that effect. […] The quantitative evaluations of the binding strength were made using a competition assay as described in Sette, et al, supra, and the numerals assigned according to the decrease in the binding activity as follows: […]
In particular, as pointed out in Sette et al., supra, T-cell recognition is much less permissive than MHC recognition. […] Binding to a class II MHC type IA^d and IE^d (d strain of mouse) was evaluated using the same assay technique as used to evaluate the binding for the polypeptides in Tables 6 and 7 above.

IC50 | Structure (SMILES)
3 µM | CC[C@H](C)[C@H](NC(=O)CNC(=O)[C@H](Cc1ccc(O)cc1)NC(=O)[C@H](CO)NC(=O)CNC(=O)[C@@H](NC(=O)[C@H](Cc1c[nH]cn1)NC(=O)[C@H](CC(=O)O)NC(=O)[C@H](C)N)C(C)C)C(=O)N[C@H](C(=O)N[C@H](C(=O)N[C@@H](Cc1ccc(O)cc1)C(=O)N[C@@H](CCC(N)=O)C(=O)N[C@@H](CO)C(=O)N1CCC[C@H]1C(=O)O)C(C)C)[C@@H](C)O [Ed 122 alpha 6-20]
9 µM | CC[C@H](C)[C@H](NC(=O)[C@H](C)NC(=O)CNC(=O)[C@H](CC(C)C)NC(=O)[C@H](C)NC(=O)[C@@H](NC(=O)[C@H](CC(C)C)NC(=O)[C@@H](NC(=O)[C@@H](NC(=O)[C@@H](NC(=O)CNC(=O)[C@H](Cc1c[nH]cn1)NC(=O)[C@@H](N)CCCCN)C(C)C)[C@@H](C)O)C(C)C)[C@@H](C)O)C(=O)N[C@@H](CC(C)C)C(=O)N[C@@H](CCCCN)C(=O)N[C@@H](CCCCN)C(=O)O [Myo 63-78]
